The subject of the test is NSCLC patients. Briefly: Outcome of gefitinib-treated NSCLC patients classified by FISH copy number profile (PIK3CA, PTEN, cen7). The test is classed as in vivo, human.
[1] abbreviates: 22 patients with high PIK3CA copy number, loss of PTEN and low cen7 copy number, full study group.
The mark [2] stands for this setting: 37 patients without EGFR mutation, classifier profile (high PIK3CA, PTEN loss, low cen7).
[3] abbreviates: 37 patients without EGFR mutation, other profiles.
The mark [4] stands for this setting: the other 50 patients, full study group.

For the compound `COc1cc2ncnc(Nc3ccc(F)c(Cl)c3)c2cc1OCCCN1CCOCC1` [gefitinib], the “median OS” value was determined as 132 days (22 patients (31%) with tumors with high PIK3CA copy number, loss of PTEN and low cen7 copy number, full study group (72 specimens)); 128 days under setting [2]; 380 days under setting [3]; 373 days (the other 50 patients (any other copy number profile), full study group). Further, the “OR (objective response)” value was determined as 0% under setting [1] and 22% under setting [4]. The “median PFS” value was 62 days under setting [1], 62 days under setting [2], 102 days under setting [3] and 128 days under setting [4]. Also, the “effectiveness in tumors (conclusion in words)” value (tumors with relatively high PTEN loss and PIK3CA gain, and low levels of EGFR or cen7, full study group or subgroup without EGFR mutations) is “relatively ineffective”.

(Values after patent US20160017440A1, “Methods Of Classifying Biological Samples For Predicting Response To Tyrosine Kinase Inhibitor Treatment” (ABBOTT MOLECULAR INC., priority 2009, published 2016).)
